{"source": "patent US11932602B2", "about": "“Method for preparing nicotinamide mononucleotide cocrystal” (BONTAC BIO-ENGINEERING(SHENZHEN) CO., LTD, priority 2021, dated 2024)", "data": [{"details": "screened with a sieve (1.00 mm, No. 18), poured into glass graduated measuring cylinder, apparent volume", "procedure": "The tops were scraped flat. The apparent volumes were recorded. The bulk densities were calculated.", "units": {"Bulk density": "g/mL"}, "values": [{"substance": "nicotinamide mononucleotide dimethyl sulfoxide solvate crystal (form 2) [reference compound]", "Bulk density": 0.22}, {"substance": "nicotinamide mononucleotide-isonicotine cocrystal [Cocrystal in example 1]", "Bulk density": 0.67}, {"substance": "nicotinamide mononucleotide-isonicotine cocrystal [Cocrystal in example 3]", "Bulk density": 0.68}, {"substance": "nicotinamide mononucleotide-isonicotine cocrystal [Cocrystal in example 4]", "Bulk density": 0.56}]}]}
